Measured values taken from publication PMC2364737, “Phase I and pharmacokinetic (PK) study of MAG-CPT (PNU 166148): a polymeric derivative of camptothecin (CPT)” (British Journal of Cancer, 2004).
Read-outs that look alike come from different tables or passages of the source.

Assays:
patients = settings: first 3 days of a 28-day cycle (390 mg m^−2 per 4 week cycle); ref Schoemaker et al, 2002; cited from earlier work
[1] = system: patients with advanced solid malignancies; assay: Phase I dose escalation study: safety, dose-limiting toxicity and MTD
Method: This was an open-label nonrandomised dose escalation study, conducted in sequential cohorts of patients from two institutions, Aberdeen Royal Infirmary, Aberdeen, and the Beatson Oncology Centre, Glasgow. It was performed under the auspices of the Cancer Research Campaign, London, with sponsorship by Pharmacia and Upjohn, Milan.
All patients had histologically or cytologically proven advanced solid malignancy that was refractory to conventional therapy. […] All patients gave written informed consent according to local Ethics Committee guidelines.
All doses of the investigational agent are expressed as mg of CPT equivalent. The drug was stored at room temperature. The vials were reconstituted with 10 ml normal saline and the dose to be administered was made up in 100 ml saline in a PVC infusion bag.
Thereafter, dose escalation was to continue according to a modified Fibonacci series. The dose escalation scheme could, however, be modified if considered appropriate based on acquired clinical and pharmacokinetic data. The MTD was defined as the highest dose at which at least three of six patients had dose-limiting toxicity (DLT).
Patients were to be retreated at 28-day intervals for up to six cycles. […] Treatment could be delayed for up to 2 weeks to allow resolution of toxicity.
During the course of the study patients were reviewed in the clinic every week with toxicity assessment, physical examination, FBC, and serum chemistry. Tumour assessment by imaging was repeated every three cycles. Chest X-ray and ECG were repeated at the end of study.

[2] = ref Sarapa et al, 2003, cited from earlier work
[3] = for AUC0– / CL (systemic clearance) / Vss (volume of distribution at steady state) / t1/2Z (apparent terminal half-life) / AUC0–∞ / Cmax (maximum concentration) / Tmax (time to maximum concentration): plasma
[4] = xenograft-bearing mice, three days after a single i.v. treatment; ref Conover et al, 1998; Caiolfa et al, 2000; cited from earlier work
animals = settings: toxicological studies in animals; cited from earlier work
[5] = carrier-bound CPT, cycle 1, dose 30 mg m^−2, mean (s.d.)
[6] = carrier-bound CPT, cycle 1, dose 60 mg m^−2, mean (s.d.)
[7] = carrier-bound CPT, cycle 1, dose 120 mg m^−2, mean (s.d.)
[8] = carrier-bound CPT, cycle 1, dose 170 mg m^−2, mean (s.d.)
[9] = carrier-bound CPT, cycle 1, dose 200 mg m^−2, mean (s.d.)
[10] = carrier-bound CPT, cycle 1, dose 240 mg m^−2, mean, n=2
[11] = released-CPT, cycle 1, dose 30 mg m^−2, mean (s.d.)
[12] = released-CPT, cycle 1, dose 60 mg m^−2, mean (s.d.)
[13] = released-CPT, cycle 1, dose 120 mg m^−2, mean (s.d.)
[14] = released-CPT, cycle 1, dose 170 mg m^−2, mean (s.d.)
[15] = released-CPT, cycle 1, dose 200 mg m^−2, mean (s.d.)
[16] = released-CPT, cycle 1, dose 240 mg m^−2, mean (s.d.)
[17] = released-CPT, cycle 1, dose 240 mg m^−2, mean, n=2
[18] = 0–8 h, cycle 1, dose 30 mg m^−2, mean (s.d.)
[19] = 8–24 h, cycle 1, dose 30 mg m^−2, mean (s.d.)

## copolymer of N-(hydroxypropyl) methacrylamide, (20-O-(N-methacryloyl-glycyl-aminohexanoyl-glycyl)) camptothecin and N-(2-hydroxypropyl) methacryloyl glycinamide [MAG-CPT]
patients
  dose at which bladder toxicity (dysuria and haematuria) was dose limiting: 130 mg m^−2 day
[1]; 170 mg m^−2, three patients
  drug-related toxicity: No significant drug-related toxicity
[1]; 240 mg m^−2
  patients with dose-limiting haematological and nonhaematological toxicities: all three patients
[1]; 240 mg m^−2, malignant mesothelioma
  toxicity following cycle 1, second patient: grade 3 diarrhoea and grade 3 myelosuppression
[1]; 240 mg m^−2, metastatic colorectal carcinoma
  toxicity following cycle 1, first patient: grade 4 myelosuppression and grade 2 diarrhoea
[1]; 240 mg m^−2, squamous carcinoma of unknown primary
  toxicity following cycle 1, third patient: grade 3 diarrhoea with no myelosuppression
[1]; 30, 60, or 120 mg m^−2 dose levels
  drug-related toxicities: No significant drug-related toxicities
[1]; 30-min infusion once every 4 weeks
  dose-limiting toxicities: myelosuppression, neutropaenic sepsis, and diarrhoea
[1]; 30-min infusion once every 4 weeks, dose as mg equivalent camptothecin
  maximum tolerated dose (MTD): 240 mg m^−2
[1]; after cycle 1 at the maximum dose (240 mg m^−2)
  death on study: One patient died
[1]; intermediate dose levels 170 and 200 mg m^−2
  haematological toxicity: No significant haematological toxicity
[2]; single dose 60 mg m^−2, up to 7 days after injection
  retention of the cytotoxic within the tumour: no evidence of preferential retention
[2]; single dose 60 mg m^−2 up to 7 days prior to surgery, colorectal cancer
  concentrations of released CPT in tumour versus normal colon: consistently lower in tumour than in normal colon
[3]; 30–240 mg m^−2
  dose proportionality of carrier-bound CPT and released-CPT AUC0−∞: no substantial deviation from dose proportionality
[3]; [5]
  AUC0–: 976.2 (163.7) μg h ml^−1
  CL (systemic clearance): 31.4 (5.8) ml h^−1 m^−2
  Vss (volume of distribution at steady state): 7841 (1903) ml m^−2
  t1/2Z (apparent terminal half-life): 216 (22) h
[3]; [6]
  AUC0–: 1760.7 (533.6) μg h ml^−1
  CL (systemic clearance): 36.2 (10.6) ml h^−1 m^−2
  Vss (volume of distribution at steady state): 5297 (529) ml m^−2
  t1/2Z (apparent terminal half-life): 132 (49) h
[3]; [7]
  AUC0–: 5747.6 (596.9) μg h ml^−1
  CL (systemic clearance): 21.0 (2.1) ml h^−1 m^−2
  Vss (volume of distribution at steady state): 5710 (722) ml m^−2
  t1/2Z (apparent terminal half-life): 219 (16) h
[3]; [8]
  AUC0–: 6559.1 (497.9) μg h ml^−1
  CL (systemic clearance): 26.0 (1.9) ml h^−1 m^−2
  Vss (volume of distribution at steady state): 6289 (524) ml m^−2
  t1/2Z (apparent terminal half-life): 188 (29) h
[3]; [9]
  AUC0–: 9305.3 (2170.5) μg h ml^−1
  CL (systemic clearance): 22.3 (4.7) ml h^−1 m^−2
  Vss (volume of distribution at steady state): 6481 (1883) ml m^−2
  t1/2Z (apparent terminal half-life): 237 (37) h
[3]; [10]
  CL (systemic clearance): 23.0 (n=2) ml h^−1 m^−2
  Vss (volume of distribution at steady state): 4326 (n=2) ml m^−2
  t1/2Z (apparent terminal half-life): 155 (n=2) h
[3]; cycle 2, 200 mg m^−2, day 8
  mean plasma level of released-CPT: 113 ng/mL
[3]; cycle 2, 200 mg m^−2, day 29
  mean plasma level of released-CPT: 25 ng/mL
[3]; in vivo
  plasma levels of released-CPT as % of carrier-bound drug concentrations (median): 0.28%
  plasma levels of released-CPT as % of carrier-bound drug concentrations (range): 0.01–4.9%
  time after treatment that carrier-bound and released-CPT were detectable in plasma: up to 4 weeks
[3]; patients who received multiple cycles
  drug accumulation: no evidence of drug accumulation
[3]; range of tested dose levels
  dose dependence of plasma pharmacokinetic parameters of carrier-bound CPT: dose independent
[3]; [11]
  AUC0–∞: 10.0 (4.5) μg h ml^−1
  Cmax (maximum concentration): 0.060 (0.039) μg ml^−1
  Tmax (time to maximum concentration): 25 (0) h
  t1/2Z (apparent terminal half-life): 168 (107) h
[3]; [12]
  AUC0–∞: 24.3 (12.0) μg h ml^−1
  Cmax (maximum concentration): 0.141 (0.087) μg ml^−1
  Tmax (time to maximum concentration): 25 (0) h
  t1/2Z (apparent terminal half-life): 185 (97) h
[3]; [13]
  AUC0–∞: 37.8 (20.0) μg h ml^−1
  Cmax (maximum concentration): 0.196 (0.079) μg ml^−1
  Tmax (time to maximum concentration): 15 (9) h
  t1/2Z (apparent terminal half-life): 216 (58) h
[3]; [14]
  AUC0–∞: 31.5 (10.8) μg h ml^−1
  Cmax (maximum concentration): 0.127 (0.023) μg ml^−1
  Tmax (time to maximum concentration): 25 (0) h
  t1/2Z (apparent terminal half-life): 224 (23) h
[3]; [15]
  AUC0–∞: 43.8 (25.5) μg h ml^−1
  Cmax (maximum concentration): 0.230 (0.133) μg ml^−1
  Tmax (time to maximum concentration): 25 (11) h
  t1/2Z (apparent terminal half-life): 209 (64) h
[3]; [16]
  Cmax (maximum concentration): 0.589 (0.105) μg ml^−1
  Tmax (time to maximum concentration): 28 (19) h
[3]; [17]
  AUC0–∞: 73.3 (n=2) μg h ml^−1
  t1/2Z (apparent terminal half-life): 228 (n=2) h
[4]
  tumour concentrations of CPT versus plasma levels: exceeding plasma levels
[18]
  Ae (amount of total CPT excreted in urine): 31.1 (5.2) mg
  fe (total CPT excreted in urine as percentage of dose): 58.4 (5.6) % dose
0–8 h, cycle 1, dose 60 mg m^−2, mean (s.d.)
  Ae (amount of total CPT excreted in urine): 42.6 (13.2) mg
0–8 h, cycle 1, dose 120 mg m^−2, mean (s.d.)
  Ae (amount of total CPT excreted in urine): 133.0 (52.4) mg
0–8 h, cycle 1, dose 170 mg m^−2, mean (s.d.)
  Ae (amount of total CPT excreted in urine): 125.1 (49.2) mg
0–8 h, cycle 1, dose 200 mg m^−2, mean (s.d.)
  Ae (amount of total CPT excreted in urine): 322.8 (178.7) mg
0–8 h, cycle 1, dose 240 mg m^−2, mean (s.d.)
  Ae (amount of total CPT excreted in urine): 777.8 (659.6) mg
0–24 h, cycle 1, dose 30 mg m^−2, mean (s.d.)
  Ae (amount of total CPT excreted in urine): 41.3 (7.0) mg
0–24 h, cycle 1, dose 60 mg m^−2, mean (s.d.)
  Ae (amount of total CPT excreted in urine): 61.6 (9.2) mg
0–24 h, cycle 1, dose 120 mg m^−2, mean (s.d.)
  Ae (amount of total CPT excreted in urine): 169.5 (64.1) mg
0–24 h, cycle 1, dose 170 mg m^−2, mean (s.d.)
  Ae (amount of total CPT excreted in urine): 171.2 (47.3) mg
200 mg m^−2, week 2 of first cycle
  mean urinary concentration of total CPT: 2.8 µg/mL
200 mg m^−2, week 4 of first cycle
  mean urinary concentration of total CPT: 0.5 µg/mL
[19]
  Ae (amount of total CPT excreted in urine): 10.2 (1.8) mg
  fe (total CPT excreted in urine as percentage of dose): 19.1 (1.7) % dose
8–24 h, cycle 1, dose 60 mg m^−2, mean (s.d.)
  Ae (amount of total CPT excreted in urine): 18.9 (4.6) mg
8–24 h, cycle 1, dose 120 mg m^−2, mean (s.d.)
  Ae (amount of total CPT excreted in urine): 36.5 (21.5) mg
8–24 h, cycle 1, dose 170 mg m^−2, mean (s.d.)
  Ae (amount of total CPT excreted in urine): 46.1 (18.5) mg
8–24 h, cycle 1, dose 200 mg m^−2, mean (s.d.)
  Ae (amount of total CPT excreted in urine): 97.8 (51.2) mg
8–24 h, cycle 1, dose 240 mg m^−2, mean (s.d.)
  Ae (amount of total CPT excreted in urine): 104.6 (92.1) mg
All dose levels
  drug in urine 28 days postdosing: detected at all dose levels in the urine of most patients
All doses tested, on average
  administered dose of total CPT recovered in the urine during the first 24 h: at least 50%
animals
  major toxicities in animals: myelosuppression, diarrhoea, and transient impairment of renal and hepatic function
